# According to ChEMBL document CHEMBL1144924, “Calculation of the binding affinity of beta-secretase inhibitors using the linear interaction energy method” (J Med Chem, 2003):
# Sequences of proteins named here, by UniProt entry; tags and fusion partners are left off. A change or cut given only in a name is not applied to a line headed by its entry.
# UniProt P56817: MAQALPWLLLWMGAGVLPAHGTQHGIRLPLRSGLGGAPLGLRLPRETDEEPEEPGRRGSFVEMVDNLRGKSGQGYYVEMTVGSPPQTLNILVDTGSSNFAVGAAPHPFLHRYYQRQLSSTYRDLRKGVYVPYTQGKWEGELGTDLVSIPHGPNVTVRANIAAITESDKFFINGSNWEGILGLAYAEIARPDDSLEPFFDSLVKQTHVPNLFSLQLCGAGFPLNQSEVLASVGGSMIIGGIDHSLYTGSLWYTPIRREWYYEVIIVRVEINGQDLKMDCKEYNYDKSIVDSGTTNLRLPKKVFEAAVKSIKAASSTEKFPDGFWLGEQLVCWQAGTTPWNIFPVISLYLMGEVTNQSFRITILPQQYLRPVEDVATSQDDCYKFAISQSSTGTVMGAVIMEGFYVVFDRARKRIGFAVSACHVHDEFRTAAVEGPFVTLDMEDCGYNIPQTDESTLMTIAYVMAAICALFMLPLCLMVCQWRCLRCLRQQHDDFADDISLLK
# Target: Beta-secretase 1 (Homo sapiens, UniProt P56817)
# Experiment: Binding affinity for human brain memapsin 2 beta-Secretase (BACE)
row,Structure (SMILES),Ki [nM]
1,CC(C)C[C@H](NC(=O)[C@@H](N)CCC(=O)O)C(=O)N[C@@H](CC(=O)O)C(=O)N[C@@H](CC(C)C)[C@@H](O)C[C@@H](C)C(=O)N[C@H](C(=O)N[C@@H](CCC(=O)O)C(=O)NC(Cc1ccccc1)C(=O)O)C(C)C (stereo partly drawn),0.32
2,CSCCC(NC(=O)[C@@H](NC(=O)OC(C)(C)C)C(C)C)C(=O)N[C@@H](CC(C)C)C(O)CC(CC(C)C)C(=O)NC(C(=O)NCc1ccccc1)C(C)C (stereo partly drawn),10500
3,CC(C)C[C@H](NC(=O)C(CCS(C)(=O)=O)NC(=O)[C@@H](NC(=O)OC(C)(C)C)C(C)C)C(O)CC(C)C(=O)NC(C(=O)NCc1ccccc1)C(C)C (stereo partly drawn),8
